The values below are quoted from earlier work in PubChem BioAssay AID1811 (Shanghai Institute of Organic Chemistry, 2009).

The other results are listed elsewhere or left out. The source made the active and inactive calls. Where no limit is named, active and inactive come without a cut-off here.

The test system of the data set is coagulation factor xa. Kind of data set: PubChem AID 1811. To be noted: PDB complex binding affinities from literature.

As to `CC(C)N1CCC(NC(=O)c2cc3ccccc3n2Cc2cc(-c3ccc(Cl)s3)on2)CC1`, the compound was called active.
